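Cells were grown in 96-well plates and exposed to each compound for 48 hours at five concentrations; endpoints were interpolated linearly between bracketing concentrations, or set to the highest concentration if not reached. Abbreviation: GI50, concentration required for 50% inhibition of growth. TGI denotes the concentration required for complete inhibition of growth.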
Legend:
Test in all cases: NCI tumour cell line growth inhibition, 48 h
786-0 renal = tested on: 786-0 renal
A498 renal = tested on: A498 renal
A549 NSCLC = tested on: A549 NSCLC
ACHN renal = tested on: ACHN renal
BT-549 breast = tested on: BT-549 breast
CAKI-1 renal = tested on: CAKI-1 renal
CCRF-CEM leukemia = tested on: CCRF-CEM leukemia
COLO 205 colon = tested on: COLO 205 colon
DU-145 prostate = tested on: DU-145 prostate
EKVX NSCLC = tested on: EKVX NSCLC
HCC-2998 colon = tested on: HCC-2998 colon
HCT-116 colon = tested on: HCT-116 colon
HCT-15 colon = tested on: HCT-15 colon
HL-60(TB) leukemia = tested on: HL-60(TB) leukemia
HOP-62 NSCLC = tested on: HOP-62 NSCLC
HOP-92 NSCLC = tested on: HOP-92 NSCLC
HS 578T breast = tested on: HS 578T breast
HT29 colon = tested on: HT29 colon
IGROV1 ovarian = tested on: IGROV1 ovarian
K-562 leukemia = tested on: K-562 leukemia
KM12 colon = tested on: KM12 colon
LOX IMVI melanoma = tested on: LOX IMVI melanoma
M14 melanoma = tested on: M14 melanoma
MALME-3M melanoma = tested on: MALME-3M melanoma
MCF7 breast = tested on: MCF7 breast
MDA-MB-231 breast = tested on: MDA-MB-231 breast
MDA-MB-435 = tested on: MDA-MB-435
MDA-N = tested on: MDA-N
MOLT-4 leukemia = tested on: MOLT-4 leukemia
NCI-H226 lung = tested on: NCI-H226 lung
NCI-H23 lung = tested on: NCI-H23 lung
NCI-H322M lung = tested on: NCI-H322M lung
NCI-H460 lung = tested on: NCI-H460 lung
NCI-H522 lung = tested on: NCI-H522 lung
NCI/ADR-RES ovarian = tested on: NCI/ADR-RES ovarian
OVCAR-4 ovarian = tested on: OVCAR-4 ovarian
OVCAR-5 ovarian = tested on: OVCAR-5 ovarian
OVCAR-8 ovarian = tested on: OVCAR-8 ovarian
PC-3 prostate = tested on: PC-3 prostate
RXF 393 renal = tested on: RXF 393 renal
SF-268 CNS = tested on: SF-268 CNS
SF-295 CNS = tested on: SF-295 CNS
SF-539 CNS = tested on: SF-539 CNS
SK-MEL-2 melanoma = tested on: SK-MEL-2 melanoma
SK-MEL-28 melanoma = tested on: SK-MEL-28 melanoma
SK-MEL-5 melanoma = tested on: SK-MEL-5 melanoma
SK-OV-3 ovarian = tested on: SK-OV-3 ovarian
SN12C renal = tested on: SN12C renal
SNB-19 CNS = tested on: SNB-19 CNS
SNB-75 CNS = tested on: SNB-75 CNS
SR leukemia = tested on: SR leukemia
SW-620 colon = tested on: SW-620 colon
T-47D breast = tested on: T-47D breast
TK-10 renal = tested on: TK-10 renal
U251 CNS = tested on: U251 CNS
UACC-257 melanoma = tested on: UACC-257 melanoma
UACC-62 melanoma = tested on: UACC-62 melanoma
UO-31 renal = tested on: UO-31 renal

CC(=O)OC1(C)CC(=O)OCC23CCC(C)=CC2OC2CC(OC(=O)/C=C/C=C/C(C(C)O)OCC1O)C3(C)C21CO1 (stereo not given)
GI50 (786-0 renal): 182 nM | TGI (786-0 renal): 487 nM | GI50 (A498 renal): 248 nM | TGI (A498 renal): 570 nM | GI50 (A549 NSCLC): 232 nM | TGI (A549 NSCLC): 703 nM | GI50 (ACHN renal): 171 nM | TGI (ACHN renal): 582 nM | GI50 (BT-549 breast): 137 nM | TGI (BT-549 breast): 577 nM | GI50 (CAKI-1 renal): 260 nM | TGI (CAKI-1 renal): 1450 nM | GI50 (CCRF-CEM leukemia): 69.1 nM | TGI (CCRF-CEM leukemia): 434 nM | GI50 (COLO 205 colon): 156 nM | TGI (COLO 205 colon): 299 nM | GI50 (DU-145 prostate): 212 nM | TGI (DU-145 prostate): 476 nM | GI50 (EKVX NSCLC): 284 nM | TGI (EKVX NSCLC): 872 nM | GI50 (HCC-2998 colon): 41.7 nM | TGI (HCC-2998 colon): 181 nM | GI50 (HCT-116 colon): 53.9 nM | TGI (HCT-116 colon): 254 nM | GI50 (HCT-15 colon): 180 nM | TGI (HCT-15 colon): 558 nM | GI50 (HL-60(TB) leukemia): 27.2 nM | TGI (HL-60(TB) leukemia): 92.9 nM | GI50 (HOP-62 NSCLC): 140 nM | TGI (HOP-62 NSCLC): 471 nM | GI50 (HOP-92 NSCLC): 111 nM | TGI (HOP-92 NSCLC): 374 nM | GI50 (HS 578T breast): 168 nM | TGI (HS 578T breast): 539 nM | GI50 (HT29 colon): 160 nM | TGI (HT29 colon): 451 nM | GI50 (IGROV1 ovarian): 105 nM | TGI (IGROV1 ovarian): 436 nM | GI50 (K-562 leukemia): 61.3 nM | TGI (K-562 leukemia): 456 nM | GI50 (KM12 colon): 101 nM | TGI (KM12 colon): 1730 nM | GI50 (LOX IMVI melanoma): 26.6 nM | TGI (LOX IMVI melanoma): 64.2 nM | GI50 (M14 melanoma): 101 nM | TGI (M14 melanoma): 255 nM | GI50 (MALME-3M melanoma): 45.6 nM | TGI (MALME-3M melanoma): 205 nM | GI50 (MCF7 breast): 49.8 nM | TGI (MCF7 breast): 512 nM | GI50 (MDA-MB-231 breast): 295 nM | TGI (MDA-MB-231 breast): 897 nM | GI50 (MDA-MB-435): 160 nM | TGI (MDA-MB-435): 389 nM | GI50 (MDA-N): 130 nM | TGI (MDA-N): 356 nM | GI50 (MOLT-4 leukemia): 55.5 nM | TGI (MOLT-4 leukemia): 944 nM | GI50 (NCI-H226 lung): 67.4 nM | TGI (NCI-H226 lung): 318 nM | GI50 (NCI-H23 lung): 123 nM | TGI (NCI-H23 lung): 313 nM | GI50 (NCI-H322M lung): 299 nM | TGI (NCI-H322M lung): 1120 nM | GI50 (NCI-H460 lung): 30.2 nM | TGI (NCI-H460 lung): 96.8 nM | GI50 (NCI-H522 lung): 32 nM | TGI (NCI-H522 lung): 114 nM | GI50 (NCI/ADR-RES ovarian): 2800 nM | GI50 (OVCAR-4 ovarian): 79.6 nM | TGI (OVCAR-4 ovarian): 279 nM | GI50 (OVCAR-5 ovarian): 232 nM | TGI (OVCAR-5 ovarian): 639 nM | GI50 (OVCAR-8 ovarian): 201 nM | TGI (OVCAR-8 ovarian): 561 nM | GI50 (PC-3 prostate): 208 nM | TGI (PC-3 prostate): 628 nM | GI50 (RXF 393 renal): 65.7 nM | TGI (RXF 393 renal): 235 nM | GI50 (SF-268 CNS): 201 nM | TGI (SF-268 CNS): 515 nM | GI50 (SF-295 CNS): 191 nM | TGI (SF-295 CNS): 483 nM | GI50 (SF-539 CNS): 37.9 nM | TGI (SF-539 CNS): 136 nM | GI50 (SK-MEL-2 melanoma): 52.3 nM | TGI (SK-MEL-2 melanoma): 265 nM | GI50 (SK-MEL-28 melanoma): 88 nM | TGI (SK-MEL-28 melanoma): 339 nM | GI50 (SK-MEL-5 melanoma): 41.4 nM | TGI (SK-MEL-5 melanoma): 154 nM | GI50 (SK-OV-3 ovarian): 103 nM | TGI (SK-OV-3 ovarian): 578 nM | GI50 (SN12C renal): 235 nM | TGI (SN12C renal): 776 nM | GI50 (SNB-19 CNS): 93 nM | TGI (SNB-19 CNS): 491 nM | GI50 (SNB-75 CNS): 119 nM | TGI (SNB-75 CNS): 344 nM | GI50 (SR leukemia): 39.1 nM | TGI (SR leukemia): 414 nM | GI50 (SW-620 colon): 234 nM | TGI (SW-620 colon): 874 nM | GI50 (T-47D breast): 188 nM | TGI (T-47D breast): 649 nM | GI50 (TK-10 renal): 242 nM | TGI (TK-10 renal): 714 nM | GI50 (U251 CNS): 71 nM | TGI (U251 CNS): 341 nM | GI50 (UACC-257 melanoma): 170 nM | TGI (UACC-257 melanoma): 432 nM | GI50 (UACC-62 melanoma): 192 nM | TGI (UACC-62 melanoma): 426 nM | GI50 (UO-31 renal): 416 nM | TGI (UO-31 renal): 2320 nM
